Measured values reported in PMC6858848 (Bioorganic & medicinal chemistry letters, 2019).
Converted amounts (≈) assume the structure as drawn.

How the values were obtained:
40 targets, mostly GPCRs = conditions: 10 μM, NIMH PDSP

With `O=C1c2ccccc2C(Cc2c(F)cncc2F)(Cc2c(F)cncc2F)c2ccccc21` [compound 6] as the molecule, how does the “Off-target activities: number of targets (of 40) with >30% binding” value (40 targets, mostly GPCRs) read?
The value was 2.

And the solubility kinetic (physchem)?
The solubility kinetic was 30 µM (≈ 13.5 µg/mL).
